SMILES strings stand for the structures.

The species named for this test is Homo sapiens. In words: Selectivity ratio, ratio of IC50 for inhibition of wild type EGFR (unknown origin) to IC50 for inhibition of EGFR L858R/T790M mutant (unknown origin). The method in brief: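 EGFR WT and L858R/T790M kinase domains expressed in a baculovirus system and purified on Ni-NTA. Kinase activity measured by ELISA-based EGFR tyrosine kinase assay; at least three independent determinations, mean ± SD.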
For the compound `C=CC(=O)Nc1cc(Nc2ncc(Br)c(Nc3ccc4c(c3)CCC4)n2)ccc1N(C)CCN(C)C`, the Ratio IC50 turned out to be 43. The same measure for `C=CC(=O)Nc1cc(Nc2ncc(Br)c(Nc3ccc4cc[nH]c4c3)n2)ccc1N(C)CCN(C)C`: 43; for `C=CC(=O)Nc1cc(Nc2ncc(Br)c(Nc3ccc4cc[nH]c4c3)n2)ccc1N1CCN(C)CC1`: 14.

For `C=CC(=O)Nc1cc(Nc2ncc(Br)c(Nc3ccc4c(c3)CCC4)n2)ccc1N1CCN(C)CC1`, the Ratio IC50 stood at 17.

Turning to `C=CC(=O)Nc1cc(Nc2nccc(Nc3ccc4c(ccn4C)c3)n2)c(OC)cc1N1CCN(C)CC1`, the Ratio IC50 is 3.

For `CCC(=O)Nc1cc(Nc2ncc(Br)c(Nc3ccc4cc[nH]c4c3)n2)c(OC)cc1N1CCN(C)CC1`, the Ratio IC50 was found to be 34.

On to `C=CC(=O)Nc1cc(Nc2ncc(Br)c(Nc3ccc4c(c3)CCC4)n2)c(OC)cc1N1CCN(C)CC1`, for which the Ratio IC50 was found to be 63. The same measure for `C=CC(=O)Nc1cc(Nc2ncc(Br)c(Nc3ccc4ccn(C)c4c3)n2)c(OC)cc1N1CCN(C)CC1`: 68.

The values above are taken from ChEMBL document CHEMBL5260822, “Structure-based design and synthesis of 2,4-diaminopyrimidines as EGFR L858R/T790M selective inhibitors for NSCLC” (Eur J Med Chem, 2017).
